From patent US9656981B2, “Peripherally-acting cannabinoid receptor agonists for chronic pain” (The Regents of the University of California, priority 2012, dated 2017)

Sequences of proteins named here, by UniProt entry; tags and fusion partners are left off.
UniProt P21554, whole entry: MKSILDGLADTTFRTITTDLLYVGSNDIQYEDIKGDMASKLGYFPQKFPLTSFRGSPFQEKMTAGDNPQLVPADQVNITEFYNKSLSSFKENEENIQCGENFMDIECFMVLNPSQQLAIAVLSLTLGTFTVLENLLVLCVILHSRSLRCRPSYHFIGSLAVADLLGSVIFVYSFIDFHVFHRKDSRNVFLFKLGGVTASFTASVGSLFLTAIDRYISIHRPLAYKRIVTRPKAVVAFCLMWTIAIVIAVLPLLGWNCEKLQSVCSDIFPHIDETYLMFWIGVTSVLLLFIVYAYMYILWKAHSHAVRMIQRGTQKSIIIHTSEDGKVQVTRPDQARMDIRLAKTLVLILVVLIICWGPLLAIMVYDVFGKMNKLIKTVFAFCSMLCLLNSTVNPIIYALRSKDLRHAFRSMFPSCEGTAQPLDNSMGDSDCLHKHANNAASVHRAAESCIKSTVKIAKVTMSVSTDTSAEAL

How the values were obtained:
[1] = literature compounds; cited from earlier work
CB1R = CB1R (Homo sapiens, UniProt P21554); assay: CB1R radioligand displacement binding assay (CP55940 radioligand); conditions: Table 1, read-out: CB1_KI_CP
Description: Heterologous competition binding assays were performed to calculate receptor affinities. Unlabeled SR141716 or SR144528 were used as appropriate controls for non-specific binding (NSB) in the assay. Calculation of the equilibrium dissociation constant (Ki) was performed using the Cheng-Prusoff equation.

CCOc1ccc(Cc2nc3cc(N(C)S(=O)(=O)c4cccs4)ccc3n2CC2CCCCC2)nc1 [AstraZeneca compound]
brain/plasma concentration ratio [1]: ~0.05

CCCCCOc1ccc(C(=O)c2cccc3ccccc23)c2ccccc12 [Compound 69, (naphthalen-1-yl)[4-(pentyloxy)naph-thalen-1-yl]methanone, reference compound]
Ki (CB1R): 17 nM
